Chains of the proteins cited; added tags and fusions are not shown. Lines headed by an entry give the natural chain unless they say otherwise; changes in a name come on top.
UniProt Q8R493: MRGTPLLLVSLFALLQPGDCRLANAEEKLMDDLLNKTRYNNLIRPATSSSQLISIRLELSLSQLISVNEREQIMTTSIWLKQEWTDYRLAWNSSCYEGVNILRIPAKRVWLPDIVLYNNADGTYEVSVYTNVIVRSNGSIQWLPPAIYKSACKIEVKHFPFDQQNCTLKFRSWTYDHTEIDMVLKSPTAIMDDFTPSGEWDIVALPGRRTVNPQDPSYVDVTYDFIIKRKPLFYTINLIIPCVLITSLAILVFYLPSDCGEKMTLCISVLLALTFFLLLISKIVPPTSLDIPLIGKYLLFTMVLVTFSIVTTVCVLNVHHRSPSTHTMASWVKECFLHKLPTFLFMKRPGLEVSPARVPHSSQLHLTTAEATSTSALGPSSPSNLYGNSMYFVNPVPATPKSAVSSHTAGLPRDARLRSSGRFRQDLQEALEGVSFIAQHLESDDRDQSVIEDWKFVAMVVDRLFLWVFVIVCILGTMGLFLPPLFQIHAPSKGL

According to ChEMBL document CHEMBL1782028, “Evaluation of structurally diverse neuronal nicotinic receptor ligands for selectivity at the alpha6( *) subtype” (Bioorg Med Chem Lett, 2009):

Molecular target: Nicotinic acetylcholine receptor alpha-4/beta-2 (Mus musculus) (UniProt Q9ERK7+Q8R493)
Experiment: Activity at alpha4beta2*nAChR in mouse striatal synaptosomes assessed as alpha-conotoxic MII-resistant DA release relative to control
Assay type: subcellular
Conditions: Brain

Compound c1cncc(CC2CC3CCN2CC3)c1 (stereo unspecified) has an Imax of 98%.
